# Tests used:
# Amino acid sequences for entries named in this document (tags omitted). A change or cut given only in a name is not applied to a line headed by its entry.
# UniProt P0DMS8, whole entry, looked up: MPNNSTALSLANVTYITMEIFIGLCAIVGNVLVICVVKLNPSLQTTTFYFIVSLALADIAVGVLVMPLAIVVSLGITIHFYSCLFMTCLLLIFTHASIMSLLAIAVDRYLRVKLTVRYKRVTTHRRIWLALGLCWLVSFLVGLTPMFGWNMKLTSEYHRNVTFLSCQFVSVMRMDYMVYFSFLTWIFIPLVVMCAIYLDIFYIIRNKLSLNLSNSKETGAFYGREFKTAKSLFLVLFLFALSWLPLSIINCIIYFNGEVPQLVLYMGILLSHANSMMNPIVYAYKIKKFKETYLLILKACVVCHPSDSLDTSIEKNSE
# UniProt P29275: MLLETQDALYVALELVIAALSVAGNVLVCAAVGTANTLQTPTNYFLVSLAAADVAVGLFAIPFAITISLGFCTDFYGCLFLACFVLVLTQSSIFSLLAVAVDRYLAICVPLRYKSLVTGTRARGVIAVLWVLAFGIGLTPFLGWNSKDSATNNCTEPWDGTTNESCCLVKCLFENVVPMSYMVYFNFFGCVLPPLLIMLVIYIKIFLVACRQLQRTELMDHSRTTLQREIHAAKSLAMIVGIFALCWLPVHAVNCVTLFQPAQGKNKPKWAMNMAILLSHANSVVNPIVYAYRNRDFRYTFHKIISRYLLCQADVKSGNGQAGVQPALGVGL
# UniProt P30542, whole entry, looked up: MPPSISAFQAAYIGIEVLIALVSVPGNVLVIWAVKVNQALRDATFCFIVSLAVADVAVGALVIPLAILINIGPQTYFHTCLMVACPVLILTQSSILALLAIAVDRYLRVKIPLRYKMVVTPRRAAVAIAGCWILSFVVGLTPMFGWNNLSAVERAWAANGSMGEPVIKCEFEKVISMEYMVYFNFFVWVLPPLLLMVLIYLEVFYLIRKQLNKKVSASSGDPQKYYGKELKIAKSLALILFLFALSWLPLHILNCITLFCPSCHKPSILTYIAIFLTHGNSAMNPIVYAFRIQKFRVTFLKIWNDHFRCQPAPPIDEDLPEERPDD
# Type in all cases: protein assay
# [1] = target: Adenosine receptors; A2a & A3 (Homo sapiens) (UniProt P0DMS8+P29274); assay: Relative binding affinity for human adenosine A2A and A3 receptors
# [2] = target: Adenosine receptors; A2b & A3 (Homo sapiens) (UniProt P29275+P0DMS8); assay: Relative binding of human adenosine A2b and A3 receptors
# [3] = target: Adenosine receptors; A1 & A3 (Homo sapiens) (UniProt P30542+P0DMS8); assay: Relative binding affinity for human adenosine A1 and A3 receptors
smiles,measurement,setting,value
CCCn1cc2c(nc(NC(=O)Nc3ccc(OC)cc3)n3nc(-c4ccco4)nc23)n1,Ratio,[1],175
same,Ratio,[2],2570
same,Ratio,[3],1500
